By UniProt entry, the sequences of proteins in these tests, tags left out.
UniProt P42866, whole entry: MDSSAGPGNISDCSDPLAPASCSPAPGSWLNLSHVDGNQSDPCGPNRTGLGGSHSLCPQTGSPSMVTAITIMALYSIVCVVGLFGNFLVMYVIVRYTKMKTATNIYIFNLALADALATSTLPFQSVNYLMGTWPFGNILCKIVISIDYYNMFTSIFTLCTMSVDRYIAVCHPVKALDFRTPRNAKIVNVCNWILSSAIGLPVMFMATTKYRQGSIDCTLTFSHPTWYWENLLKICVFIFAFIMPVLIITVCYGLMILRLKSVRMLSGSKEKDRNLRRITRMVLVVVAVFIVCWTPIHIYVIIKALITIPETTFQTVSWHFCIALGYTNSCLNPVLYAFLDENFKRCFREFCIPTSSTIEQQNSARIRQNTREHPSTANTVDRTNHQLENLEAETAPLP

According to paper PMC5731250 (Cell, 2017):

Legend:
mouse MOR [1] = target: T1, mouse MOR (Mus musculus, UniProt P42866)
mouse MOR [2] = target: T1, mouse MOR; remark: listed apart in the source
mouse MOR [3] = target: T1, mouse MOR; remark: listed apart in the source

CN1CC[C@]23c4c5ccc(O)c4O[C@H]2[C@@H](O)C=C[C@H]3[C@H]1C5 [Morphine]
Δlog(τ/KA) GTPγS (CHO) (mouse MOR [1]): −0.42±0.07
GTPγS (CHO)/βarr2 Δδlog(τ/KA) (mouse MOR [2]): −0.09 (−0.37 to 0.18)
Δlog(τ/KA) βarr2 (imaging) (mouse MOR [3]): −0.33±0.07
